Data taken from PubChem BioAssay AID485344 (National Center for Advancing Translational Sciences (NCATS), 2010).
This is a selection; strong and weak results do not stand in their true shares. Calls of active or inactive are those of the source. Rule as the data show it: active = inhibition above about 30%; inactive = below that, where a call was filed.

The chains behind the UniProt entries cited, without tags or fusion partners.
UniProt P14416, whole entry, looked up: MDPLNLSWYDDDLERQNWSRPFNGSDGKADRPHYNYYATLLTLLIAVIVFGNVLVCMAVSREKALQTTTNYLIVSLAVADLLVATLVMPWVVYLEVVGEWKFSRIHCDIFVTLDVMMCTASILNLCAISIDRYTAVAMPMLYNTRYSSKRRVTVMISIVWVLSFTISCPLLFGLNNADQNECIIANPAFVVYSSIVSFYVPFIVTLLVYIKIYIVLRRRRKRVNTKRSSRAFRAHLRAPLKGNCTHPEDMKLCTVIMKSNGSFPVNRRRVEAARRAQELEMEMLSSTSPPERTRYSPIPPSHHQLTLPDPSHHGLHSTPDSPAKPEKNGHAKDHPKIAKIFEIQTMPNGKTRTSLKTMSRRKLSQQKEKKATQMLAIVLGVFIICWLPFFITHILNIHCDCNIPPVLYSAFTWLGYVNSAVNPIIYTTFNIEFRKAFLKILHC

What follows are compounds tested against D(2) dopamine receptor (Homo sapiens) (UniProt P14416) (assay: HTS Assay for Allosteric Antagonists of the Human D2 Dopamine Receptor: Primary Screen for Antagonists). Details: HEK293 TREx D2 cells, calcium flux, dopamine EC80; at 10 µM; active compounds read high.
From the text: NIH Chemical Genomics Center [NCGC] NIH Molecular Libraries Probe Centers Network [MLPCN] MLPCN Grant: NS064831-01 Assay Submitter (PI): David Sibley Dopamine receptors (DARs) are involved in the etiology and/or therapy of a number of neuropsychiatric and endocrine disorders. For instance, all receptor-based antiparkinsonian drugs work via stimulating the D2 DAR subtype whereas all FDA-approved antipsychotic agents are antagonists of this receptor. […] There are three different types of allosteric modulators that we are seeking, two of which will stimulate or augment receptor signaling, allosteric agonists and potentiators, while the third, allosteric antagonists, will attenuate receptor signaling. The present primary screening assay measures compound antagonism after an EC80 addition of dopamine by tracking calcium flux in a […], inducible Hek293 Trex D2 cell line.
Freshly passaged cells are plated in 1536 well black, clear bottom plates at a density of 4000 cells/well in 3 ul of complete media containing 1x tetracycline inducer. After an overnight incubation at 30 C in 5% CO2, cells are loaded with 2 ul of the no wash Calcium Assay Kit (ABD Bioquest) and incubated at room temperature for 30 to 90 minutes. Agonist read: A 10 cycle (1 second/cycle) baseline measurement is taken and then the FDSS online 1536 pintool delivers 23 nl of compound library (as well as dopamine controls) to the plate. The plate is measured for kinetically at 1 cycle/sec for 180 seconds. Following the 180 second read, 1 ul of an EC80 (negative modulation assay) is delivered by an onboard pipette head. Measurements are taken kinetically for an additional 180 seconds.
Also: 0% is about no effect.

| Structure (SMILES) | inhibition |
| --- | --- |
| O=C(Nc1cc([As](=O)(O)O)ccc1O)c1ccccc1 | inactive: -13.2% |
| CC(C)(C)C(=O)NC(Sc1ccncn1)C(Cl)(Cl)Cl (centres undefined) | inactive: 2.59% |
| O=[N+]([O-])c1ncn(CCn2ncnc2[N+](=O)[O-])n1 | inactive: -3.56% |
| O=[N+]([O-])c1cccc(NC2=NCC(CBr)S2)c1 (centres undefined) | inactive: 5.8% |
| O=C(O)CNc1ccc([As](=O)(O)O)cc1 | inactive: 3.7% |
| COc1ccc(C2=NCC(CBr)S2)cc1 (centres undefined) | inactive: -10.5% |
| O=[N+]([O-])c1cccc2n[nH]nc12 | inactive: 1.62% |
| CC(=O)N1C2C3N(C(C)=O)C1C1N(C(C)=O)C(C(N1C(C)=O)N3C(C)=O)N2C(C)=O | inactive: -7.69% |
| Cc1ccc(NP(=O)(Oc2ccccc2)Oc2ccccc2)nc1 | inactive: -1.71% |
| CCc1nc2c(n1)c1c(non1O)c1c2no[n+]1[O-] | inactive: -8.15% |
| O=[N+]([O-])c1cc([N+](=O)[O-])c(CCNc2ccccc2)c([N+](=O)[O-])c1 | inactive: -8.72% |
| Nc1ccc([As](=O)(O)c2ccc(N)cc2)cc1 | inactive: 16.3% |
| C[N+]1=C2C=CC=CC=C2SC12C([N+](=O)[O-])=CC([N+](=O)[O-])=C[C-]2[N+](=O)[O-] (centres undefined) | inactive: 5.33% |
| CCN(/C(=N/P(=O)(N1CCOCC1)N1CCOCC1)N1CCOCC1)c1ccc(OC)cc1 | inactive: 1.95% |
| CC(C)=N/N=C(\N)N[N+](=O)[O-] | inactive: 6.74% |
| CN(C)C(=O)OCCc1n(C)cc[n+]1C | inactive: -16.8% |
| CC1CCN(C(=O)Oc2c(Cl)cc(Cl)c3cccnc23)CC1 | inactive: -14.7% |
| NC(=O)c1cc([N+](=O)[O-])cc([N+](=O)[O-])c1N | inactive: -0.654% |
| CN(C(=O)Cc1ccc(Cl)c(Cl)c1)[C@H]1CCCC[C@H]1N1CCCC1 | inactive: 24.8% |
| Cc1ccc(N/C(=N/P(=O)(N2CCOCC2)N2CCOCC2)N2CCOCC2)cc1 | inactive: -1.09% |
| COc1ccccc1OP(=O)(Nc1ccc(C)cn1)Oc1ccccc1OC | inactive: 2.99% |
| Cc1ccc(OP(=O)(Nc2nccs2)Oc2ccc(C)cc2)cc1 | inactive: 0.292% |

| Structure (SMILES) | inhibition |
| --- | --- |
| CN1CCCC(OC(=O)C(c2ccccc2)c2ccccc2)C1 (centres undefined) | inactive: -44.5% |
| Clc1ccc(Cl)c(NC2=NCC(CBr)S2)c1 (centres undefined) | inactive: -7.47% |
| Nc1cc(N)c2nonc2c1[N+](=O)[O-] | inactive: -8.73% |
| Oc1ccccc1CNc1ccccn1 | inactive: 6.38% |
| O=C(NC(Sc1ccncn1)C(Cl)(Cl)Cl)c1ccccc1 (centres undefined) | inactive: -2.02% |
| Cc1c2non([O-])c-2c(C)[n+](=O)[n+]1[O-] | inactive: 2.31% |
| CC(=O)Nc1ccc([As](=O)(O)O)cc1 | inactive: -2.84% |
| O=C(O)c1ccccc1[As](=O)(O)O | inactive: -19.9% |
| O=P(Nc1nc2ccc(Cl)cc2s1)(c1ccccc1)c1ccccc1 | inactive: -4.86% |
| Cc1cc(SC(NC(=O)c2ccc(F)cc2)C(Cl)(Cl)Cl)ncn1 (centres undefined) | inactive: -0.307% |
| CCOP(=O)(Nc1ccccc1)OCC | inactive: 20.5% |
| Cc1ccc(NP(=O)(Oc2ccccc2F)Oc2ccccc2F)nc1 | inactive: -24.3% |
| O=[N+]([O-])c1cc([N+](=O)[O-])c(CCN2CCOCC2)c([N+](=O)[O-])c1 | inactive: 6.95% |
| CCN(N=Nc1nonc1N)c1nonc1N | inactive: 3.33% |
| Nc1cccc2ccc([As](=O)(O)O)cc12 | inactive: -13.7% |
| O=C(NC1CCS(=O)(=O)C1)NP(=S)(Oc1ccccc1)Oc1ccccc1 (centres undefined) | inactive: -5.17% |
| c1ccc(-c2nn[nH]n2)c(-c2nn[nH]n2)c1 | inactive: -11.1% |
| Cc1ccc(NP(=O)(Oc2cccc(C)c2)Oc2cccc(C)c2)nc1 | inactive: -8.61% |
| CCOC(=O)NC(Sc1ccccc1)C(Cl)(Cl)Cl (centres undefined) | inactive: -0.269% |
| COC(=O)c1cc2c(s1)N=C(c1ccccc1)N(C)P2(=O)N1CCOCC1 (centres undefined) | inactive: -19% |
| CC(=O)NC(SC(=S)N(CC(C)C)CC(C)C)C(Cl)(Cl)Cl (centres undefined) | inactive: 8.35% |
| Cc1ccc(OP(=O)(Nc2ccccn2)Oc2ccc(C)cc2)cc1 | inactive: 11.3% |

| Structure (SMILES) | inhibition |
| --- | --- |
| O=C(OC1CN2CCC1CC2)c1ccccc1 (centres undefined) | inactive: -24% |
| CCC(=O)N1C2C3N(C(=O)CC)C1C1N(C(=O)CC)C(C(N1C(=O)CC)N3C(=O)CC)N2C(=O)CC | inactive: 12.7% |
| Cc1ccccc1OP(=O)(Nc1ccccn1)Oc1ccccc1C | inactive: -4.3% |
| O=c1c2cc([N+](=O)[O-])ccc2[nH]c2c([N+](=O)[O-])cc([N+](=O)[O-])cc12 | inactive: 10.1% |
| CN(C)C(=O)Oc1noc2ccccc12 | inactive: 10.3% |
| O=P1(Nc2nc3ccc(Cl)cc3s2)COc2ccccc2O1 (centres undefined) | inactive: -5.96% |
| CCOc1ccc(C2=NCC(CBr)S2)cc1 (centres undefined) | inactive: 16.6% |
| CC(C)(C)C(=O)NC(Sc1ccccc1)C(Cl)(Cl)Cl (centres undefined) | inactive: 25.5% |
| CC(=O)c1ccc(N2CC2c2ccncc2)cc1 (centres undefined) | inactive: 2.84% |
| C[C@H]1OP(=O)(Oc2ccccc2)C[C@@H]2O[C@@H]21 (some centres undefined) | inactive: -31.1% |
| C[C@@H]1C=CCP(=O)(Oc2ccccc2)O1 (some centres undefined) | inactive: 28.5% |
| CC(=O)Nc1ccc([As](=O)(O)O)c(O)c1 | inactive: -9.01% |
| CC(=O)Nc1ccc(Oc2c([N+](=O)[O-])cc([N+](=O)[O-])cc2[N+](=O)[O-])cc1 | inactive: 12.3% |
| CC(C)C(=O)NC(Sc1ccccc1)C(Cl)(Cl)Cl (centres undefined) | inactive: -8.26% |
| O=P(Nc1nccs1)(c1ccccc1)c1ccccc1 | inactive: 0.762% |
| c1nnnn1CCn1cnnn1 | inactive: 5.71% |
| O=P(Nc1ccccn1)(c1ccc(Br)cc1)c1ccc(Br)cc1 | inactive: 0.756% |
| CN(C)C1(CNC(=O)c2ccc(Cl)c(S(N)(=O)=O)c2)CCCCC1 | inactive: -2.78% |
| O=P(Nc1nc2ccccc2s1)(c1ccccc1)c1ccccc1 | inactive: -2.96% |
| O=[N+]([O-])c1ccc(O)c(/C=N/Nc2ccc([N+](=O)[O-])cc2[N+](=O)[O-])c1 | inactive: -3.49% |
